Measured values: ChEMBL document CHEMBL1125816, “[123I]-2 beta-carbomethoxy-3 beta-(4-iodophenyl)tropane: high-affinity SPECT radiotracer of monoamine reuptake sites in brain” (J Med Chem, 1991)

Sequences of proteins named here, by UniProt entry; tags and fusion partners are left off.
UniProt P31652, whole entry: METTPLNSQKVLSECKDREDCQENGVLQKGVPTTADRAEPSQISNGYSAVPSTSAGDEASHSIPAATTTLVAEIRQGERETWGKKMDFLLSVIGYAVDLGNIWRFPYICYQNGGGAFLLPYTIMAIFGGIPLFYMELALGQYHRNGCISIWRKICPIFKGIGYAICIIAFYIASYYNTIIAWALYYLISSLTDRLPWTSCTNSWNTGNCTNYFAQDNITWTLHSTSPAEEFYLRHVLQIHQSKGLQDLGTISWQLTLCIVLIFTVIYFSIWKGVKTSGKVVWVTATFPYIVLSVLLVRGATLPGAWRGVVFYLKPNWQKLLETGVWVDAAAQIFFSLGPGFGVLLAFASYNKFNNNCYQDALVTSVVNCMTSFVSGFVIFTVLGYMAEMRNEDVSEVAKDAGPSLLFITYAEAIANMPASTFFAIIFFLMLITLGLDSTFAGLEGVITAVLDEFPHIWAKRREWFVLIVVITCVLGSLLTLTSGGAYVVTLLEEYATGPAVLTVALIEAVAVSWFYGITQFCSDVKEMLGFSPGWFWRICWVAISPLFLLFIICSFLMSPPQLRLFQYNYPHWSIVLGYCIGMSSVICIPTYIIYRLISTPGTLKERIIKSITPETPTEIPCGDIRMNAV

Target: Sodium-dependent serotonin transporter (Rattus norvegicus, UniProt P31652)
Experiment: Compound was tested for binding affinity to Serotonin transporter sites in homogenates prepared from rat cortical membranes using [3H]paroxetine as radioligand

COC(=O)[C@H]1[C@@H](OC(=O)c2ccccc2)C[C@@H]2CC[C@H]1N2C [COCAINE]
IC50: 207 nM
